For the test, the target named is Delta-type opioid receptor (Homo sapiens, UniProt P41143). The test is described as follows: Binding affinity against delta opiate receptor using [3H]DPDPE.

Chains of the proteins cited; added tags and fusions are not shown.
UniProt P41143, whole entry, looked up: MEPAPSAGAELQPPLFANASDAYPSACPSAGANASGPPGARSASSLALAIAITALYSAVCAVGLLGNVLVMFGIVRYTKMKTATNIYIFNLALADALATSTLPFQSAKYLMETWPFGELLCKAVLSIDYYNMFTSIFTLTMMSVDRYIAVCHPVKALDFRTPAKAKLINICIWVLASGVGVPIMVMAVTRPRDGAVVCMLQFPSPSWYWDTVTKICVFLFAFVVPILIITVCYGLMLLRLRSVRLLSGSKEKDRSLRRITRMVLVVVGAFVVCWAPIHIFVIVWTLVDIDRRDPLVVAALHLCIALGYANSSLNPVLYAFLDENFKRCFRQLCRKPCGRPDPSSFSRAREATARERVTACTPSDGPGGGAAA

Each structure is given as a SMILES string. pIC50: −log10 of the molar value.

In turn, `Fc1ccc(C(OCCN2CCN(CCCc3ccccc3)CC2)c2ccc(F)cc2)cc1` had a negative-log IC50 (pIC50) of under 5.00.

Regarding `Fc1ccc(C(OCCN2CCN(C/C=C/c3ccccc3)CC2)c2ccc(F)cc2)cc1`, the negative logarithm of the IC50 (pIC50) was under 5.00.

Values taken from BindingDB's records for 11585444.
